From article PMC9959676 (Molecules, 2023)
pIC50: −log10 of the molar value.

Assays:
[1] = test system: Bacillus pumilus; experiment: Antibacterial agar-well diffusion; assay type: cell-based; conditions: sample 100 mg/5 mL in DMSO; ceftriaxone sodium 20 mg/10 mL; 37 °C, 24 h; 6 mm wells
[2] = target: urease (Canavalia ensiformis, UniProt P07374)
[3] = DPPH free radical scavenging assay; conditions: 1.0 mL sample 0.5 mg/mL + 2 mL DPPH 0.2 mg/mL, 30 min, 517 nm
[4] = test system: thoracic aorta segments; experiment: Inhibition of phenylephrine-induced contraction on isolated aorta rings; design: species or system male Wistar rats; conditions: compounds 10^−4 M in organ bath, phenylephrine 10^−6 M, n = 5

CCCCC(=O)N(Cc1ccc(-c2ccccc2-c2nn[nH]n2)cc1)C(C(=O)Oc1c([N+](=O)[O-])cc([N+](=O)[O-])cc1[N+](=O)[O-])C(C)C (centres unmarked)
Zone of Inhibition Gram +ve Bacteria B.pumilus Mean ± SEM [1]: 11.01 ± 0.89 millimeters | pIC50 ([2]; read-out: IC50 ± SEM, urease, pH 7.0, 37 °C): 5.81 | folds more urease inhibition than standard Thiourea ([2]; relative to Thiourea IC50): 3 folds | %Age Inhibition ± SEM [3]: 92.1 ± 0.82% | %ge inh. of Phenylephrine Cont. (±SEM) [4]: 69.6 ± 5.3%
